Drawing on US5491132A, this text covers IC50 for eleven molecules.

Protein sequences, listed by entry. Tags and fused reporters are not part of them. Residues count along the entry.
UniProt P00797, 67-406 limits assumed: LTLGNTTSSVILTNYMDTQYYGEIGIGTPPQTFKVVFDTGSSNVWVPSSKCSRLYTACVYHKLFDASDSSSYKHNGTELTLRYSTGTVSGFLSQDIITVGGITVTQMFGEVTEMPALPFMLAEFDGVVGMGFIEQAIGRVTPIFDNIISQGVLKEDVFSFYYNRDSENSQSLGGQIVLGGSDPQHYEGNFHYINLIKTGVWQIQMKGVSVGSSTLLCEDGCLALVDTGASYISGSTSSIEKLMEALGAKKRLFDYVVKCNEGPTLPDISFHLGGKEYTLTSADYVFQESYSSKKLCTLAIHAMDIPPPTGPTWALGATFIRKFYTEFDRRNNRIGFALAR

The target of the test is renin (Homo sapiens, UniProt P00797). Description: Inhibition of human plasma renin activity (angiotensin I formation, RIA). The settings on record: pooled human plasma, endogenous renin and angiotensinogen, pH 6.0, 37° C., 90 minutes incubation, Ang I measured by RIA; Probit method; tested form: HCl. On the procedure: Human plasma was collected from male volunteers pretreated with no drugs and used as a pool. Disodium salt of ethylenediaminetetraacetic acid (EDTA) was used as the anticoagulant. Plasma renin activity was measured as the rate of angiotensin I (Ang I) formation after incubation (37° C.) of the endogenous renin and angiotensinogen in plasma at pH 6.0. The incubation mixture contained 250 μl of plasma, 5 μl of (phenylmethyl)sulfonyl fluoride, 30 μl of buffer (sodium, potassium-phosphate, pH 6.0), and 15 μl of an appropriate concentration of test compound in 50% ethyl alcohol-water vehicle. The Ang I formed after 90 minutes of incubation was measured by radioimmunoassay (RIA) which was carried out with a commercial kit, RENIN.RIABEAD (Trademark: manufactured by Dainabot Co., Ltd.). Samples were incubated in duplicate and each tube was measured in duplicate in the RIA. Percentage inhibition of plasma renin activity was calculated by comparing the amount of Ang I produced with and without a test compound. The concentration of test compound that inhibited plasma renin activity by 50% (IC50) was determined by Probit method.
`CCC(CC)C[C@H](O)[C@H](CC1CCCCC1)NC(=O)[C@H](Cc1c[nH]cn1)N(C)C(=O)[C@H](Cc1ccccc1)NC(=O)N(C)CCC(=O)N1CCOCC1`: the half-maximal inhibitory concentration (IC50) was found to be 1.7 nM. The molecule `CN(CCN(C)C(=O)N1CCSCC1)C(=O)N[C@@H](Cc1ccccc1)C(=O)N(C)[C@@H](Cc1c[nH]cn1)C(=O)N[C@@H](CC1CCCCC1)[C@@H](O)CC1CCCCC1` came in with an IC50 of 0.72 nM. `CC(C)CC[C@H](O)[C@H](CC1CCCCC1)NC(=O)[C@H](Cc1c[nH]cn1)N(C)C(=O)[C@H](Cc1ccccc1)NC(=O)N(C)CCN(C)C(=O)N1CCSCC1`: the half-maximal inhibitory concentration (IC50) was 0.29 nM.

`CC(C)C[C@H](O)[C@H](CC1CCCCC1)NC(=O)[C@H](Cc1c[nH]cn1)N(C)C(=O)[C@H](Cc1ccccc1)NC(=O)N(C)CCN(C)C(=O)N1CCOCC1` displayed an IC50 of 0.47 nM. For `CCC(CC)C[C@H](O)[C@H](CC1CCCCC1)NC(=O)[C@H](Cc1c[nH]cn1)N(C)C(=O)[C@H](Cc1ccccc1)NC(=O)N(C)CCN(C)C(=O)N1CCOCC1` the value was 0.3 nM.

In turn, `CC(C)C[C@H](O)[C@H](CC1CCCCC1)NC(=O)[C@H](Cc1c[nH]cn1)N(C)C(=O)[C@H](Cc1ccccc1)NC(=O)N(C)CCN(C)C(=O)N1CCSCC1` gave an IC50 of 0.079 nM. As for `CC(C)CC[C@H](O)[C@H](CC1CCCCC1)NC(=O)[C@H](Cc1c[nH]cn1)N(C)C(=O)[C@H](Cc1ccccc1)NC(=O)N(C)CCN(C)C(=O)N1CCc2ccccc2C1`, the IC50 came out at 3.9 nM.

Molecule `CC(C)C[C@H](O)[C@H](CC1CCCCC1)NC(=O)[C@H](Cc1c[nH]cn1)N(C)C(=O)[C@H](Cc1ccccc1)OC(=O)N(C)CCN(C)C(=O)N1CCOCC1` gave an IC50 of 3.1 nM. As for `CC(C)CC[C@H](O)[C@H](CC1CCCCC1)NC(=O)[C@H](Cc1c[nH]cn1)N(C)C(=O)[C@H](Cc1ccccc1)NC(=O)N(C)CCN(C)C(=O)N1CCCCC1`, the half-maximal inhibitory concentration (IC50) was determined as 1 nM.

Molecule `CCC(CC)C[C@H](O)[C@H](CC1CCCCC1)NC(=O)[C@H](Cc1c[nH]cn1)N(C)C(=O)[C@H](Cc1ccccc1)OC(=O)N(C)CCN(C)C(=O)N1CCSCC1` gave a 50% inhibitory concentration (IC50) of 3.9 nM.

Turning to `CCCN(CCC)C(=O)N(C)CCN(C)C(=O)N[C@@H](Cc1ccccc1)C(=O)N(C)[C@@H](Cc1c[nH]cn1)C(=O)N[C@@H](CC1CCCCC1)[C@@H](O)CCC(C)C`, the half-inhibitory concentration (IC50) came out at 0.38 nM.

By IC50 is commonly meant the point on the concentration scale where inhibition reaches its midpoint. Low readings indicate greater potency in that assay, high ones weaker potency in that assay.
